# Test results taken from US20250345446A1 (Draupnir Bio ApS, priority 2022, published 2025).
# Chains of the proteins cited; added tags and fusions are not shown. A line that says so, or that is headed by a name, gives the form on record, which may keep a tag or linker. Residues count along the entry.
# UniProt Q99523, 34-756 with tags or gaps V650M: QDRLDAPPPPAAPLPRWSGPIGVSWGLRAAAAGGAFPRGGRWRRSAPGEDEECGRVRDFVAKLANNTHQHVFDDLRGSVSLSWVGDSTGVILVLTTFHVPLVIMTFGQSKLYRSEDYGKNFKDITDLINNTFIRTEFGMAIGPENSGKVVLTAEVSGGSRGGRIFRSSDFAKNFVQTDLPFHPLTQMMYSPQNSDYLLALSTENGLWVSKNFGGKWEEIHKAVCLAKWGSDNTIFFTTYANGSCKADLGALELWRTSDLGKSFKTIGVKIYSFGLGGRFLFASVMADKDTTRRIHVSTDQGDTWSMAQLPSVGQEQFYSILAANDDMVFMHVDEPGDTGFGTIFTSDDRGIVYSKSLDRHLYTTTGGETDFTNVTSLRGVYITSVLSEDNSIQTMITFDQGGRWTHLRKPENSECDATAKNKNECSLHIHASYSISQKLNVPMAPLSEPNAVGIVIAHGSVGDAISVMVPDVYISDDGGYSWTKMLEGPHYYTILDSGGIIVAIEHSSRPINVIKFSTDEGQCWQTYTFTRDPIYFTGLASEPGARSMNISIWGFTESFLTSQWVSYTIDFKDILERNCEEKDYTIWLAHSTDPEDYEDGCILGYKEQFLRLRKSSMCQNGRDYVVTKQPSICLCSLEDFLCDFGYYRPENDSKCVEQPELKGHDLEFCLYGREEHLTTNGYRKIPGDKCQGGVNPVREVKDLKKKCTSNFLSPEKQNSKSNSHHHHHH
# UniProt P01375, 77-233 limits assumed: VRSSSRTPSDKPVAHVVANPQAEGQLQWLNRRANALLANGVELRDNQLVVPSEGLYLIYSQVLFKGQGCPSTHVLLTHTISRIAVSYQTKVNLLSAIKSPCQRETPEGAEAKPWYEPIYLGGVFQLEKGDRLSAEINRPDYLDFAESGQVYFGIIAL
# Tests used:
# [1] = target: soluble ectodomain of sortilin-6his (Homo sapiens, UniProt Q99523, V650M); experiment: MST binding to soluble ectodomain of sortilin-6his; conditions: read-out: KD score, binding to sortilin (Kd), Table 4, small molecule bifunctional compounds
# TNFa-6His = TNFa-6His (Homo sapiens, UniProt P01375); experiment: MST binding to TNFa-6his; conditions: read-out: KD (score), Kd of TNFalpha binding, Table 8, NTA labeled TNFa-6His (100 nM)
# HEK293/sortilin cells = experiment: Remaining TNFalpha in conditioned media (ELISA); conditions: after 72 h, 20 nM TNFalpha; added TNFalpha (100%) subtracted remaining TNFalpha (%)
compound,measurement,setting,value
C[C@@H]1CN(c2ncc(-c3ccc4c(n3)N(Cc3cccnc3C#N)C(C)(C)C4=O)cn2)CCN1C(=O)COCCCCCCCCNC(=O)COc1cccc(Oc2ccc(C(=O)N[C@@H](CCC(C)(C)C)C(=O)O)cn2)c1,Kd,[1],> 250 nM
same,Kd,TNFa-6His,> 2000 nM
same,Maximum clearance rates of TNFalpha from conditioned media,HEK293/sortilin cells,39.4%
